Results: ChEMBL document CHEMBL1136581, “Synthesis of dopamine transporter selective 3-[2-(diarylmethoxyethylidene)]-8-alkylaryl-8-azabicyclo[3.2.1]octanes” (Bioorg Med Chem Lett, 2003)

Sequences of proteins named here, by UniProt entry; tags and fusion partners are left off.
UniProt P23977, whole entry: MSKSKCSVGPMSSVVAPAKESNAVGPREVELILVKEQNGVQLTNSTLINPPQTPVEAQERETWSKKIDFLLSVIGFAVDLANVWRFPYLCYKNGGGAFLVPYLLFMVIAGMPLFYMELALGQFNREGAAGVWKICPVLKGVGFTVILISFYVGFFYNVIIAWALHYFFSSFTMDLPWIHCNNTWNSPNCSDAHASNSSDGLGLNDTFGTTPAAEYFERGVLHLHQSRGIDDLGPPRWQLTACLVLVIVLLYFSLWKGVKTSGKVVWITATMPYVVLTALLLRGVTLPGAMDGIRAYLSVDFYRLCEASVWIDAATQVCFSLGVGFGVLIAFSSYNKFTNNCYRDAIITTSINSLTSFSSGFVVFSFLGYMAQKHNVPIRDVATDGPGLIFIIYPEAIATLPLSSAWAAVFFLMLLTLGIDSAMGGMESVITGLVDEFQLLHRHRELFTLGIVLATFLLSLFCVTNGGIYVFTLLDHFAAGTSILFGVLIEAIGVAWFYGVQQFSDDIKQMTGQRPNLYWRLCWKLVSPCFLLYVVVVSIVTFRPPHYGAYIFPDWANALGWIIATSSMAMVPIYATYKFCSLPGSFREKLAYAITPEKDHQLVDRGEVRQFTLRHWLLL

Target: Sodium-dependent dopamine transporter (Rattus norvegicus, UniProt P23977)
Assay: Binding affinity at dopamine transporter from rat caudate-putamen tissue by [3H]WIN-35428 displacement.
Procedure, shortened: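 Compounds were tested as oxalate salts. Ki values are the mean ± SEM of three experiments, each run in triplicate.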

## Fc1ccc(C(OCC=C2CC3CCC(C2)N3Cc2ccccc2)c2ccc(F)cc2)cc1
  Ki: 7.9 nM
